G9a block = inhibitors of human histone lysine methyltransferase G9a. Q96KQ7. G9a H3K9 monomethylation, AlphaScreen, 2 h. Potency, µM (titrated, usually from 102 µM), hits mostly inhibitors. 350,000 tested, 8.8% active; further: nearly all actives have a fitted effect of over 75% in size
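Enzyme 20 nM + cpd, 15 min RT; add b-H3K9 pep 500 nM / SAM 20 uM; 2 h RT; anti-H3K9me1 Ab 0.5 ug/mL + SA donor / anti-rabbit acceptor beads 20 ug/mL each, 10 min; AlphaScreen read.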
KDM4E inh = JMJD2E (human) inhibition | B2RXH2 | JMJD2E catalytic domain, FDH-coupled NADH fluorescence (FDH is formaldehyde dehydrogenase) | Potency, µM (top dose mostly 57.1 µM), usual class: inhibitors | 230,000 tested, 1.6% active | AID 2147; active means well fitted inhibition curve with a large enough effect, not every such curve was filed as active; inconclusive means small, poorly fitted or top-dose-only effect, or another doubt; inactive means no such curve, though single readings can be large or run the other way; further: nearly all actives have a fitted effect of over 50% in size
miR-21 reporter = raises the signal of a miR-21 reporter | HeLa miR-21 FLuc reporter, luciferase, 48 h | Potency, µM (highest dose often 38.3 µM) | 340,000 tested, under 10 active | AID 2288; active = well fitted rising curve with a large enough effect; inconclusive = small, poorly fitted or top-dose-only effect; inactive = no such curve, though single readings can be large or run the other way;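 note: miR-21 action dims this reporter so a rising signal means less miR-21 action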
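HeLa miR-21-FLuc reporter line, endogenous miR-21; 2000 cells/well in DMEM/10% FBS; compound titration up to ~40uM final, 48 h, 37 degree Celsius; luciferase detection reagent, 15 min lysis, CCD luminescence.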
Sfp inh = Sfp phosphopantetheinyl transferase inhibition | Q9F4F7 | Biochemical Sfp PPTase activity, qHTS | Potency, µM, most hits filed as inhibitors | 310,000 tested, 3.5% active;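 further: the enzyme is Sfp with the accession as filed and its product quenches rhodamine fluorescence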
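Fluorescence-quenching assay with 15 nM Sfp, 5 uM rhodamine-CoA and 12.5 uM BHQ-2-labelled ybbR peptide in pH 7.6 Hepes/MgCl2 buffer. Enzyme was pre-incubated with compound for 15 min at room temperature. Rate was taken from the 30-min fluorescence change (525/598 nm).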
ALDH1A1 block = blocks purified human ALDH1A1 activity; Purified ALDH1A1, NADH fluorescence, propionaldehyde substrate; AID 1030; Potency, µM (series often up to 75.3 µM), usual class: inhibitors; P00352; 220,000 tested, 7.3% active; active means well fitted inhibition curve with a large enough effect, not every such curve was filed as active; inconclusive means small, poorly fitted or top-dose-only effect, or another doubt; inactive means no such curve, though single readings can be large or run the other way
LMNA splice mod = LMNA splicing modulation | HeLa LMNA splicing GFP/RFP minigene ratio, 48 h | Potency, µM (doses to about 46.1 µM), actives largely listed as inhibitors | 200,000 tested, 0.01% active; active means well fitted inhibition curve with a large enough effect in the signal ratio, with a control signal flat, not every such curve was filed as active; inconclusive means small, poorly fitted or top-dose-only effect, or effect the other way, or a change in a side signal; the % refers to the signal ratio
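S3 HeLa stable clones carrying a lamin A-EGFP splicing minigene plus DsRed2 were seeded at 600 cells/well in Opti-MEM with 2% FBS, pin-dosed and incubated 48 h at 37°C. Acumen cytometry (488 nm) gave the GFP/RFP total-intensity ratio.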
Numbers stand for hits; [ ] = dose if it differs, or a comment. This is a sample that favours compounds with a hit; in the whole collection about 13% have one here. Unless noted, the call rests on the fitted dose curve; in most records, active means well fitted curve in the direction sought with a large enough effect; inconclusive means small, poorly fitted or top-dose-only effect, or another doubt; inactive means no such curve, though single readings can be large; an effect the other way counts as inactive or inconclusive.

What do the screens show for `Cc1ccnc(NC(=O)CNC(=O)c2ccccc2Br)c1`?
miR-21 reporter: inactive; Sfp inh: inactive

How did CN1CCN(c2ncc3nc(-c4cc(F)cc(F)c4)c(=O)n(CCC#N)c3n2)CC1 do in these assays?
G9a block: inactive[0.501 µM]; Sfp inh: inactive; ALDH1A1 block: inconclusive; LMNA splice mod: inactive

What do the screens show for `Cc1cc(NC(=O)CN(C)S(=O)(=O)c2ccc3c(c2)CCCC(=O)N3)ccc1Br`?
G9a block: inactive; miR-21 reporter: inconclusive; LMNA splice mod: inactive

How did COc1ccccc1-c1nnc(Nc2nc3c(OC)cccc3s2)o1 do in these assays?
G9a block: inactive; KDM4E inh: inconclusive; miR-21 reporter: inactive; Sfp inh: inactive; ALDH1A1 block: inconclusive; LMNA splice mod: inconclusive

Results for COc1cccc2sc(NN)nc12 ?
G9a block: 31.6µM; KDM4E inh: inconclusive; miR-21 reporter: inactive; Sfp inh: 50.1µM; ALDH1A1 block: inactive; LMNA splice mod: inactive[9.22 µM]

Results for COc1ccc(C(=O)Nc2cc(-c3ccccc3)nn2-c2ccccc2F)cc1 ?
G9a block: inactive[12.7 µM]

Results for CC1Cc2cc(/C(O)=C3/C(=O)C(=O)N(CCCn4ccnc4)C3c3ccncc3)ccc2O1 (configuration not stated) ?
KDM4E inh: inactive; miR-21 reporter: inactive; Sfp inh: inactive; ALDH1A1 block: inactive; LMNA splice mod: inactive

Results for CC1Cc2cc(/C(O)=C3/C(=O)C(=O)N(CCCn4ccnc4)C3c3cccnc3)ccc2O1 (configuration not stated) ?
G9a block: 50.1µM; KDM4E inh: inactive; miR-21 reporter: inactive; Sfp inh: inactive; ALDH1A1 block: inactive; LMNA splice mod: inactive

What do the screens show for `CC1Cc2cc(/C(O)=C3/C(=O)C(=O)N(CCCn4ccnc4)C3c3cccc([N+](=O)[O-])c3)ccc2O1` (configuration not stated)?
G9a block: 50.1µM; miR-21 reporter: inactive; Sfp inh: inactive

Results for O=C(NC(=S)NCc1cccnc1)c1cc(Br)ccc1Cl ?
G9a block: inactive[12.7 µM]; miR-21 reporter: inactive; Sfp inh: inactive

Results for COc1cccc(-c2nc3c(c(SCc4ccccc4Cl)n2)Cc2c(CO)cnc(C)c2O3)c1 ?
G9a block: inactive; miR-21 reporter: inactive

What do the screens show for `CCn1c(SCC(=O)Nc2ccc(C)cc2Br)nnc1-c1nonc1NC(C)=O`?
G9a block: inactive; miR-21 reporter: inactive; LMNA splice mod: inactive

What do the screens show for `COc1ccccc1/C=N/N1C(=O)C2C3C=CC(CC3)C2C1=O` (configuration not stated)?
G9a block: inactive; KDM4E inh: inactive; miR-21 reporter: inactive; Sfp inh: inactive; ALDH1A1 block: 7.08µM

Results for COc1ccc(/C=N/N2C(=O)C3C4C=CC(CC4)C3C2=O)c(OC)c1 (configuration not stated) ?
G9a block: inactive; KDM4E inh: inactive; miR-21 reporter: inactive; Sfp inh: inactive; ALDH1A1 block: 2.24µM; LMNA splice mod: inactive

What do the screens show for `O=C(NCCc1csc(-c2cccc(F)c2)n1)c1cccs1`?
G9a block: inactive; miR-21 reporter: inactive; LMNA splice mod: inactive

What do the screens show for `COc1ccc(N2CCN(C(=O)CCc3c(C)nc4cc(-c5cccc(F)c5)nn4c3C)CC2)cc1`?
G9a block: inactive; miR-21 reporter: inactive

What do the screens show for `CCOC(=O)C1CCN(Cc2cccc(OC)c2)CC1`?
G9a block: 10µM; KDM4E inh: inconclusive; miR-21 reporter: inactive; Sfp inh: inactive; ALDH1A1 block: 31.6µM; LMNA splice mod: inactive

How did Oc1cccc(CN2CCCCC2)c1 do in these assays?
G9a block: inactive; KDM4E inh: inactive; miR-21 reporter: inactive; Sfp inh: inactive; ALDH1A1 block: inactive; LMNA splice mod: inactive

What do the screens show for `CCOC(=O)C1CCN(Cc2ccccc2C)CC1`?
G9a block: inconclusive; KDM4E inh: inactive; miR-21 reporter: inactive; Sfp inh: inactive; ALDH1A1 block: inconclusive; LMNA splice mod: inactive

Results for Fc1ccc(CN2CCCCCC2)c(F)c1 ?
G9a block: inactive[12.7 µM]; KDM4E inh: inconclusive; miR-21 reporter: inactive; Sfp inh: inactive; ALDH1A1 block: inactive; LMNA splice mod: inactive

Results for Fc1ccc(CN2CCCCCCC2)cc1F ?
G9a block: 25.1µM; KDM4E inh: inactive; miR-21 reporter: inactive; Sfp inh: inactive; ALDH1A1 block: 17.8µM; LMNA splice mod: inactive

Results for CCOC(=O)C1CCN(Cc2coc3c(Cl)cc(Cl)cc3c2=O)CC1 ?
G9a block: 11.2µM; KDM4E inh: inactive; miR-21 reporter: inactive; Sfp inh: inconclusive; ALDH1A1 block: inactive; LMNA splice mod: inactive

What do the screens show for `Brc1cccc(CN2CCCCCC2)c1`?
G9a block: 25.1µM; miR-21 reporter: inactive; Sfp inh: inactive

What do the screens show for `Cc1cc(=O)[nH]c2nnc(SCc3cccc(C(F)(F)F)c3)n12`?
G9a block: inactive; miR-21 reporter: inactive; LMNA splice mod: inconclusive

Results for CCOC(=O)C1(Cc2cccc(OC)c2)CCN(C2CCOCC2)CC1 ?
G9a block: 50.1µM; KDM4E inh: inactive; miR-21 reporter: inactive; Sfp inh: inactive; ALDH1A1 block: inactive; LMNA splice mod: inactive

What do the screens show for `CCOC(=O)C1CCN(Cc2ccc(F)c(F)c2)CC1`?
G9a block: 28.2µM; KDM4E inh: inactive; miR-21 reporter: inactive; Sfp inh: inactive; ALDH1A1 block: inconclusive; LMNA splice mod: inactive

Results for CCOC(=O)C1CCN(Cc2oc(CO)cc(=O)c2O)CC1 ?
G9a block: 11.2µM; KDM4E inh: inactive; miR-21 reporter: inactive; Sfp inh: inactive; ALDH1A1 block: inactive; LMNA splice mod: inactive

Results for O=c1[nH]c(Cc2ccccc2)nc2scc(-c3ccccc3)c12 ?
G9a block: inactive; KDM4E inh: inactive; miR-21 reporter: inactive; Sfp inh: inactive; ALDH1A1 block: inactive; LMNA splice mod: inactive

Results for CC(C)CNC(=O)CSc1nc2scc(-c3ccccc3)c2c(=O)[nH]1 ?
G9a block: 11.2µM; KDM4E inh: inactive; miR-21 reporter: inactive; Sfp inh: inactive; ALDH1A1 block: inconclusive; LMNA splice mod: inconclusive

How did O=C(O)CSCc1nc2scc(-c3ccccc3)c2c(=O)[nH]1 do in these assays?
G9a block: 50.1µM; KDM4E inh: inactive; miR-21 reporter: inactive; Sfp inh: inactive; ALDH1A1 block: inactive; LMNA splice mod: inactive

What do the screens show for `COc1cccc(-n2c(=O)c3c(C)c(C)sc3n(CC(=O)NCc3ccccc3)c2=O)c1`?
G9a block: inactive; miR-21 reporter: inactive

What do the screens show for `N#CC(c1ccc(=O)[nH]n1)c1ccc(Cl)cc1Cl` (configuration not stated)?
KDM4E inh: inactive; miR-21 reporter: inactive; Sfp inh: inactive; ALDH1A1 block: inactive; LMNA splice mod: inconclusive

Results for Cc1ccc(C(C#N)c2ccc(C(=O)c3ccc(F)cc3)cc2)cc1 (configuration not stated) ?
G9a block: inactive; KDM4E inh: inactive; miR-21 reporter: inactive; Sfp inh: inactive; ALDH1A1 block: inconclusive; LMNA splice mod: inconclusive

From PubChem
